## AlphaSeq binding of Ab-14 heavy chain variants to a spike HR2 peptide

Reference: Li et al. 2023, doi:10.1038/s41467-023-39022-2. File: FLAb, binding data.

All variants were tested on one target, the spike HR2 peptide PDVDLGDISGINAS (SARS-CoV-2).

Ab-14 is the parent antibody, in scFv form: VH, then a 15-residue (Gly4Ser)3 linker, then VL. The light chain is unchanged in all variants.
VH: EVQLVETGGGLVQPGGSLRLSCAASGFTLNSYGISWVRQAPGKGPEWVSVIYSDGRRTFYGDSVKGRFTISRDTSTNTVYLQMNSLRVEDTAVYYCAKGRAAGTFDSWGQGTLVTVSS
VL: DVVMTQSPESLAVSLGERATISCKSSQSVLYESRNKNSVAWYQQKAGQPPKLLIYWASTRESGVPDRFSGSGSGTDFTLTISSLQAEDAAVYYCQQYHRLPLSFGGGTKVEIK

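The starting antibody came from a phage panning campaign against this peptide. The variants were designed computationally from a first round of random CDR variants and then made and measured. Group labels follow the data file (Ctrl: baseline library sampled from a position-specific scoring matrix, with some repeated check sequences; Rand: our label for a block that the file lists under HC and that is probably the random mutants of the ten best first-round binders; En: ensemble of fine-tuned language models; GP: Gaussian process model; GPLM: also part of the Gaussian process libraries; HC: hill climbing; Gen: genetic algorithm; Gibbs: Gibbs sampling; a sequence that several methods proposed may carry one label only). AlphaSeq pools MATa yeast showing the antibodies with MATalpha yeast showing the peptide. Binding brings cells together so that they mate, and sequencing counts the barcode pairs among the diploids. The ratio of observed to expected reads was calibrated, replicate by replicate, on BCL2-family standards whose Kd was known from biolayer interferometry. The assay was run in six technical replicates.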

The parent's heavy chain CDRs are GFTLNSYGIS, VIYSDGRRTFYGDSVK, GRAAGTFDS; each variant's own CDRs replace them letter for letter. Values are log10 of the apparent Kd in nM; lower means stronger binding. A mean of the replicates is given; it leaves out those without a signal. Where no diploid with the target was found in that replicate, the entry reads "ND": below detection, most likely a poor binder, though not proof of it. Nonspecific signal, from three strains lacking the peptide, appeared in 1% of pairings of all heavy chain designs, centred on 2.08 (5% of these signals below 0.84); values are not corrected for it.

CDR-H1 | CDR-H2 | CDR-H3 | group | replicates, log10 nM | mean log10 Kd (nM)
GFDLNSYGIS | VIYSDGRRTFYGDSVK | GRAADTGDS | Ctrl | ND / ND / 3.06 / ND / ND / ND | 3.06
GFTLNSYGIS | VIYSDGRRTFYGDEVK | GRAAGTFDS | Ctrl | ND / ND / ND / ND / ND / 1.23 | 1.23
GFSLNMYGIS | VIYSDGRRTFYSDSVK | GQAAGTFDS | GPLM_Gen | 0.39 / 0.75 / 0.16 / 0.51 / 0.34 / 0.27 | 0.40
GFTLNSYGIS | VIYSDGRRTFYEDSVR | TRAAHTMDS | Ctrl | ND / ND / ND / ND / ND / ND | ND
GFTLGSYGIS | VIYSDGRRTFYGDSVK | GRRIGTADS | Ctrl | ND / ND / ND / ND / ND / ND | ND
GFTLNDYGIS | VIYHDGGRTQPGDSVK | GRAALTFIS | Rand | ND / ND / ND / ND / ND / ND | ND
GFTLNSYGIS | VIYSDGRRTFYSDRVK | GQAAGTFDK | GP_Gibbs | ND / -0.24 / 0.83 / 0.86 / 1.25 / 0.45 | 0.63
GFDLDEYGIS | VIYADGMRTAYTDSVK | GETAGTFDV | En_Gen | 0.62 / ND / ND / 0.50 / -0.10 / -0.20 | 0.20
GFDLNEYGIS | VIYADGRRTFYTDSVK | GGNAGTFIL | En_HC | ND / ND / ND / ND / ND / ND | ND
GFTLNSYGIS | VIYSDGRRTFYDDSVK | GLEAGTFDS | GP_HC | 1.20 / 1.02 / 0.57 / 1.01 / 0.36 / 0.60 | 0.79
GFDLNEYGIS | VIYADGTRTAYADSVK | GNVAGTFDM | En_Gen | 0.13 / -0.22 / 0.00 / -0.29 / 0.23 / -0.58 | -0.12
TFTLNSYGVS | VIYSDGRRTFYTDSVK | GRAAGPFDT | Ctrl | ND / ND / ND / ND / ND / ND | ND
GFSLNSYGIS | VIYSDGRRTFYVDSVK | GKNAGTFDS | GP_Gen | 1.30 / 0.66 / 1.13 / 0.82 / 0.63 / 0.87 | 0.90
GFDLNEYGIS | VIYADGMRTAYTDSVK | GNQAGTFDT | En_Gen | -0.25 / -0.43 / -0.84 / -0.88 / -0.76 / -0.44 | -0.60
GFSLNSYGIS | VIYSDGRRTFYVDSVK | GQTAGTFDS | GPLM_Gen | 0.88 / 0.69 / 0.83 / 0.84 / 0.43 / 0.70 | 0.73
GFTLNSYGIS | LIYSDGRRTFYGDSVK | GRVAATFVS | Ctrl | ND / ND / ND / ND / ND / ND | ND
GFTLNSYGIS | VIYSDGRRTFYGDSVK | GKAAGAFDS | Ctrl | ND / ND / ND / ND / ND / ND | ND
GFDLNSYGIS | VIYSDGRRTFYADDVK | GRTAGTFDS | GP_Gen | -0.41 / 0.12 / 0.02 / -0.53 / -0.28 / 0.40 | -0.11
GNDIEEYGIS | VIYADGQRVNAAQNFK | GKQAGTFNL | En_Gibbs | ND / ND / ND / ND / ND / ND | ND
GFTLKSYGIS | VIYADGRRTFYGDSVK | GQAAGTFSS | GP_HC | 0.97 / 1.80 / 1.66 / 1.55 / 1.95 / ND | 1.59
GFDLNEYGIS | VIYADGRRTFYADSVK | GENAGTFDS | En_HC | -0.45 / -0.32 / -0.65 / -0.66 / -0.68 / -0.52 | -0.55
GFTLNSQGIS | VIYSDGRRTFYGDSVK | GRFHGPFWS | Ctrl | ND / ND / ND / ND / ND / ND | ND
GFTLNSYGIS | VIYSDGQRTFYSDSVK | GKEAGTFDS | GPLM_Gibbs | 0.17 / -0.06 / -0.13 / 0.12 / -0.08 / -0.12 | -0.01
GFDLNEYGIS | VIYADGKRTAYADDVK | GETAGTFDV | En_Gen | 0.24 / -0.06 / -0.61 / 0.22 / 0.15 / 0.20 | 0.02
GFTLNSYGIS | VKYSDGRRTFYGDSVK | GRAAITFDS | Ctrl | ND / ND / ND / ND / ND / ND | ND
GFDLNEYGIS | VIYADGVRTAYVDSVK | GEVAGTFDV | En_Gen | -0.09 / -0.05 / -0.55 / -0.40 / -0.32 / -0.28 | -0.28
GFDLNEYGIS | VIYADGMRTAYADSVK | GEIAGTFDV | En_Gen | -0.06 / -0.20 / -0.25 / -0.26 / -0.36 / 0.14 | -0.16
GFTLNSYGIS | VIYADGRRTFYGDSVK | GNAAGTFDT | GP_Gen | -0.58 / -0.63 / -0.86 / -1.10 / -0.83 / -0.71 | -0.78
GFTLDSYGIS | VIYSDGRRTFYGDNVV | GRKAKTIDS | Ctrl | ND / ND / ND / ND / ND / ND | ND
GFDLNSYGIS | VIYSDGRRTFYGDSVK | GRTAGQFNS | GP_HC | ND / 2.34 / ND / ND / ND / 1.77 | 2.06
GFTLNSYGIS | VIYSDGKRTFYGDNVK | GQAAGTFDL | GP_Gibbs | ND / ND / 1.57 / 1.37 / ND / 1.25 | 1.40
IFTLDSYGIS | VIYSDGRRTFYGDSVK | GRLAGTFDS | Ctrl | ND / ND / 1.56 / ND / 1.15 / ND | 1.36
GFDINEYGIS | VIYADGRRTAYADSVK | GETAGTFDV | En_HC | -0.01 / -0.57 / -0.25 / -0.56 / -0.52 / -0.06 | -0.33
GFDLNEYGIS | VIYADGRRTFYADSVK | GEEAGTFDV | En_HC | -0.83 / -1.55 / -1.04 / -1.23 / -1.48 / -0.71 | -1.14
GFSLNEYGIS | VIYSDGRRTFYGDSVK | GKAAGTFDR | GP_Gen | 0.44 / 0.70 / 0.22 / 0.87 / 0.65 / 0.91 | 0.63
GFSLNSYGIS | VIYSDGSRTSYGDSVR | GRAAGTFDS | Ctrl | 0.91 / 1.95 / ND / ND / 1.32 / 1.82 | 1.50
GFDLNEYGIS | VIYADGVRTAYIDSVK | GNVAGTFDI | En_Gen | ND / ND / ND / ND / ND / ND | ND
GFHLNSYGIS | VIYSDGRRTFYIDSVK | GKTAGTFDS | GPLM_Gibbs | ND / 2.60 / 2.20 / 3.26 / 2.37 / 2.77 | 2.64
GFNLNSYGIS | VIYSDGYRTFYGDSVK | GRAAGTSDS | Ctrl | ND / ND / ND / ND / ND / ND | ND
GFGLNEYGIS | VIYADGQRTSYAQSVK | DANDIIGLV | En_Gibbs | ND / ND / ND / ND / ND / ND | ND
GFSLNSYGIS | VIYSDGRRTFYADSVK | GSAAGTFDS | GPLM_Gen | 0.12 / -0.34 / -0.02 / -0.18 / 0.01 / 0.04 | -0.06
GFDLNEYGIS | VIYADGSRTFYADSVK | GNVAGTFDI | En_Gen | -0.19 / -0.48 / -0.50 / -0.66 / -0.63 / -0.42 | -0.48
GFDLNEYGIS | VIYADGKRTFYSDSVK | GNQAGTFDS | En_HC | -0.34 / -0.60 / -0.66 / -0.83 / -0.77 / -0.43 | -0.60
GYSLQDYGIS | VIYADGKRKSYAEDVK | GNSGGSFMD | En_Gibbs | ND / ND / ND / ND / ND / ND | ND
GFDLDQYGIS | VIYADGRRTAYDNDVK | GQVAGIFLD | En_Gibbs | 1.04 / 1.58 / ND / 2.58 / 1.26 / ND | 1.61

The 7 strongest on average among those seen in every replicate, once more:

CDR-H1 | CDR-H2 | CDR-H3 | group | replicates, log10 nM | mean log10 Kd (nM)
GFDLNEYGIS | VIYADGRRTFYADSVK | GEEAGTFDV | En_HC | -0.83 / -1.55 / -1.04 / -1.23 / -1.48 / -0.71 | -1.14
GFTLNSYGIS | VIYADGRRTFYGDSVK | GNAAGTFDT | GP_Gen | -0.58 / -0.63 / -0.86 / -1.10 / -0.83 / -0.71 | -0.78
GFDLNEYGIS | VIYADGKRTFYSDSVK | GNQAGTFDS | En_HC | -0.34 / -0.60 / -0.66 / -0.83 / -0.77 / -0.43 | -0.60
GFDLNEYGIS | VIYADGMRTAYTDSVK | GNQAGTFDT | En_Gen | -0.25 / -0.43 / -0.84 / -0.88 / -0.76 / -0.44 | -0.60
GFDLNEYGIS | VIYADGRRTFYADSVK | GENAGTFDS | En_HC | -0.45 / -0.32 / -0.65 / -0.66 / -0.68 / -0.52 | -0.55
GFDLNEYGIS | VIYADGSRTFYADSVK | GNVAGTFDI | En_Gen | -0.19 / -0.48 / -0.50 / -0.66 / -0.63 / -0.42 | -0.48
GFDINEYGIS | VIYADGRRTAYADSVK | GETAGTFDV | En_HC | -0.01 / -0.57 / -0.25 / -0.56 / -0.52 / -0.06 | -0.33

The authors' rule: three or more of the six replicates give a measured affinity, fewer mean a poor binder. A sequence measured in both rounds can read differently, since the two assays cover different ranges.